Experimental data as given in article PMC4281354, “The opioid receptor pharmacology of GSK1521498 compared to other ligands with differential effects on compulsive reward-related behaviours” (Psychopharmacology, 2014).

Protein sequences, listed by entry. Tags and fused reporters are not part of them. Lines headed by an entry give the natural chain unless they say otherwise; changes in a name come on top.
UniProt P35372: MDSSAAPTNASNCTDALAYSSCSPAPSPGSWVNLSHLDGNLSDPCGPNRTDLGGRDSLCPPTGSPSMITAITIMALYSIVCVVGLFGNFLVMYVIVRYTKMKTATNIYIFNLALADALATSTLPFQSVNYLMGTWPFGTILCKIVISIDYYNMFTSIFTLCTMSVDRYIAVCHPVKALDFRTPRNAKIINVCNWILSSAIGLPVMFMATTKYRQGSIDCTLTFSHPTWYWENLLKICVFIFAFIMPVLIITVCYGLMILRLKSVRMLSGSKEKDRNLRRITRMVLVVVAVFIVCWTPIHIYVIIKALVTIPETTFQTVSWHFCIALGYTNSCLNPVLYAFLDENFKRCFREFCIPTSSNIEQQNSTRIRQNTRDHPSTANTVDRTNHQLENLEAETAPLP
UniProt P42866: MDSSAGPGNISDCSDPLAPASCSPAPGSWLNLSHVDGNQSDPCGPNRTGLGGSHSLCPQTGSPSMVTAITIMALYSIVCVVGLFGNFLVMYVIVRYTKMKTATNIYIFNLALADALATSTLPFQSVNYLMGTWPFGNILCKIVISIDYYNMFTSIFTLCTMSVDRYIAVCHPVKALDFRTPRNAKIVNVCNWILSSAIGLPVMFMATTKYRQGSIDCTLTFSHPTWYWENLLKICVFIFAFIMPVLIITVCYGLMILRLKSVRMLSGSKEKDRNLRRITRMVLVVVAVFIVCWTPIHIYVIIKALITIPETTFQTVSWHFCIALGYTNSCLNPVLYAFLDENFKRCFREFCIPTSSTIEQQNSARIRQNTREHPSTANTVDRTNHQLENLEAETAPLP

Experiments:
MOPr = MOPr (Homo sapiens, UniProt P35372); test: [3H]naloxone competition displacement binding, MOPr-HEK293 membranes; conditions: membranes from MOPr-HEK cells; data not shown
[1] = target: MOPr in mouse brain membranes (Mus musculus, UniProt P42866); test: Basal [35S]GTPγS binding, whole mouse brain membranes (naive or morphine-pretreated mice); type: biochemical

## β-chlornaltrexamine dihydrochloride
MOPr
  displacement of specific 3H-naloxone binding: displaced specific ^3H-naloxone binding
[1]; 1 μM
  inhibition of basal [35S]GTPγS binding, membranes from naïve or morphine-treated animals: did not observe any inhibition
[1]; mouse brain membranes, data not shown
  effect on DAMGO stimulation of GTPγS binding: prevented DAMGO stimulation
